Source: US20070021415A1, “Pharmaceutical composition for the prevention or treatment of cerebral oedemas” (priority 2005, published 2007)

System: rats
Experiment: Effect of the dose of triethyl tin
Type: in vivo, rat

For `C[CH2][Sn]([Br])([CH2]C)[CH2]C`, the mortality (TET 3 mg/kg/d) was “no mortality” and the mortality (TET 4 mg/kg/d) was “mortality from the 4th day”.
